# Key:
# [1] = test system: rats; assay: Analgesic effects of 3290W93 and fentanyl in rats (Example 14); format: in vivo, rat
# [2] = test system: Male Sprague Dawley rats; assay: Tail pinch test, alfentanil induced analgesia in rats (Example 13); conditions: for analgesic effect: compound administered alone
# [3] = test system: Male Sprague Dawley rats; assay: Respiratory depression, transcutaneous pCO2 during alfentanil infusion in rats (Example 13); conditions: for effect on blood pCO2 levels: compound administered alone
# [4] = test system: rats
# [5] = test compound 60 μg/kg/min with alfentanil 6 μg/kg/min and compound of Example 1 60 μg/kg/min
smiles,measurement,setting,value
C=CCN1C[C@H](C)N([C@@H](c2cccc(O)c2)c2cccc(C(=O)N(C)c3cccc(F)c3)c2)C[C@H]1C [listing 1 of 2 here],analgesia (in words),[1],high levels of analgesia
C=CCN1C[C@@H](C)N([C@@H](c2ccc(C(=O)N(CC)CC)cc2)c2cccc(O)c2)C[C@H]1C,analgesic effect,[2],no analgesic effect
same,tail pinch latency,[2]; [5],20 s
same,effect on blood pCO2 levels,[3],no effect on blood pCO2 levels
same,pCO2 level above baseline,[3]; [5],33%
C=CCN1C[C@@H](C)N([C@H](c2ccc(C(=O)N(CC)CC)cc2)c2cccc(O)c2)C[C@H]1C,effect on tail pinch latency,[2]; alfentanil 6 μg/kg/min with concurrent test compound 60 or 120 μg/kg/min,remained unaffected
same,analgesic effect,[2],no analgesic effect
same,pCO2 level above baseline,[3]; alfentanil 6 μg/kg/min with concurrent infusion of test compound 60 μg/kg/min,22%
same,pCO2 level above baseline,[3]; alfentanil 6 μg/kg/min with concurrent infusion of test compound 120 μg/kg/min,17%
same,effect on blood pCO2 levels,[3],no effect on blood pCO2 levels
C=CCN1C[C@H](C)N([C@@H](c2cccc(O)c2)c2cccc(C(=O)N(C)c3cccc(F)c3)c2)C[C@H]1C [listing 2 of 2 here],respiratory depression (in words),[4],did not substantially increase respiratory depression except at high doses
same,separation between analgesic and respiratory depressant effects compared with fentanyl,[4],five times greater separation
same,therapeutic ratio (respiratory depression ED50 divided by analgesia ED50),[4]; i.v.,25

# Reference: patent US6919350B2 (priority 1996, dated 2005)
